Experimental data published in patent publication US20240279332A1 (Amgen, published 2024).

Key:
[1] = target: T1, human TREM-1 (TrigGering Receptor Expressed on Myeloid cells 1) on cells (human, UniProt Q9NP99 21-234); assay: FACS on HEK293 co-transfected with human TREM-1 and DAP12; hybridoma supernatant 2.5 ug/mL; geomean fold over irrelevant control antibody
T1 construct: also called human TREM1/DAP12; TREM-1/DAP12
Description: (§1) The TREM-1-specific antibodies identified in primary screening were evaluated for cross-reactivity to cynomolgus TREM-1, as well as specificity to TREM-1 and not DAP12. TREM-1 hybridoma supernatants were tested for binding to human or cyno TREM-1 transiently expressed on HEK293 cells by FACS (harvests 1-6) or by […]™ (harvests 8-9). […] The following day, transfected HEK293 cells were transferred into 96-well FACS plates at 50,000 cells/well and incubated with normalized hybridoma supernatants at a final concentration of 2.5 μg/mL for 1 hour at 4° C. Cells were then pelleted by centrifugation, supernatant was removed by flicking, and wells were washed twice with 200 μL/well of FACS buffer. 5 μg/mL ALEXA FLUOR® 647 Goat anti-Human IgG Fc (Jackson ImmunoResearch) secondary detection antibody and 2.5 μg/mL 7-aminoactinomycin-D (Sigma) viability stain were incubated with the cells for 15 minutes at 4° C. Cells were pelleted by centrifugation, supernatant was removed by flicking, and wells were washed once more with 200 μL/well of FACS buffer. TREM-1 hybridoma supernatants showing human TREM-1- or cyno TREM-1-specific binding was detected by FACS on the BD ACCURI™ 06 flow cytometer with Intellicyt autosampler. The data was reported as geomean (GM) fold over irrelevant control antibody binding.

[2] = target: T2, biotinylated human TREM-1-His antigen (human, UniProt Q9NP99 21-205, biotinylated in-house, site not stated); assay: limiting antigen assay, FACS on LumAvidin beads coated with 7.5 ng/mL biotinylated human TREM-1-His; antibody 5 ug/mL
T2 construct: Soluble TREM-1; also called b-huTREM-1-His; Soluble TREM1
Source text: TREM-1 Antibody Relative Affinity Ranking by Limiting Antigen Assay: TREM1 hybridoma supernatants were affinity-ranked within the panel by their binding kinetics to soluble TREM-1 in a limiting antigen assay using LUMAVIDIN® beads (Luminex) on FACS. Briefly, in-house biotinylated human TREM-1-His antigen (b-huTREM-1-His) was serially diluted in FACS buffer and combined with an equal volume of LUMAVIDIN® beads (different uniquely-barcoded bead for each antigen concentration), resulting in a 5-point 2-fold serial dilution series starting from a final b-huTREM-1-His antigen concentration of 30 ng/mL. The antigen-bead mixtures were plated across 3 wells in a 96-well FACS plate, then incubated for 30 minutes at room temperature protected from light. Beads were then pelleted by centrifugation, supernatant was removed by flicking, and wells were washed twice with 200 μL/well of FACS buffer. The different beads were then resuspended, pooled, and diluted in STABILGUARD® Immunoassay Stabilizer (SurModics) to block non-specific binding. Normalized TREM-1 hybridoma supernatants were combined with an equal volume of bead mixture in a FACS plate at a final concentration of 5 μg/mL test antibody to 0.5 μL beads/well. The plates were then shaken and incubated overnight for ˜18 hours at room temperature. Beads were then pelleted by centrifugation, supernatant was removed by flicking, and wells were washed twice with 200 μL/well of FACS buffer. ALEXA FLUOR® 488 Goat anti-Human IgG Fc secondary detection antibody (Jackson ImmunoResearch) was added at 5 μg/mL to the plates, shaken, and incubated for 15 minutes at room temperature protected from light. Beads were washed with FACS buffer, pelleted by centrifugation, supernatant was removed by flicking, and washed once more with FACS buffer. The beads were then resuspended and run on the BD ACCURI™ C6 Flow Cytometer with Intellicyt […]® autosampler.
The antibody binding signal correlates with antibody affinity; the degree of antibody binding to the target antigen TREM-1 correlates with the measured fluorescent intensity and thus allows a relative comparison of affinities across the panel.

[3] = target: T1, human TREM-1 (TrigGering Receptor …); assay: cell-based or functional assay
cyno TREM-1 on cells = target: T3, cyno TREM-1 on cells (cynomolgus monkey, UniProt A0A2K5VHG8 21-233); assay: FACS on HEK293 co-transfected with cyno TREM-1 and DAP12; hybridoma supernatant 2.5 ug/mL; geomean fold over irrelevant control antibody
T3 construct: whole, on cells; On HEK293 cells co-transfected with DAP12, or native on cynomolgus PBMCs; also called cynomolgus TREM-1; TREM-1 receptor in cynomolgus monkey PBMCs
T3 sequence: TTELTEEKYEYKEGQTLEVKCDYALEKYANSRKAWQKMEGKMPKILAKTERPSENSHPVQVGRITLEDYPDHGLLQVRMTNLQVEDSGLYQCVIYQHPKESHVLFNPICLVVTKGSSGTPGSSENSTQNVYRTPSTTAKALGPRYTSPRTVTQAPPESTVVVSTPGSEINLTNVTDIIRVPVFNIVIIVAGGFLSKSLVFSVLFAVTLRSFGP
Description: as §1

B1: 49A2 (antibody, V domains shown)
VH: EVQLVESGGGLVQPGGSLRLSCAASGFTFSSNWMSWVRQAPGKGLDWMASMKQDGSEIYYVDSVKGRFTISRDNAKNSLHLQMNSLRAEDTAVYYCVRGGWRFESWGQGALVTVSS
VL: EIVMTQSPATLSVSPGERATLSCRASQSVSSNLAWYQQKSGQAPRLLIYGASIRATGIPARVSGSGSGTEFTFTISSLQSEDFAVYYCQQYKNWPLTLGGGTKVEIKR
notes: also called 49A2 (19333)
Human TREM1 GM Fold [1]: 2220 fold
Soluble TREM1 7.5 ng/mL (FACS Geomean) [2]: 28300
Ab IC50-Human PBMC (Trial 1), TNFα release after PGLYRP1/PGN [3]: 3.1 pM
Ab IC50-Human PBMC (Trial 2), TNFα release after PGLYRP1/PGN [3]: 3.3 pM
Cyno TREM1 GM Fold (cyno TREM-1 on cells): 2980 fold

B2: 66B8 (antibody, V domains shown)
VH: QVQLVQSGAEVKKPGASVKVSCKASGYTFTGYYMHWVRQAPGQGLEWMGWFKPNSGVTNYAQKFQGRVTMSRDTSISTAYMELSSLRSDDTAVYYCARAGYSTSWKDWFDPWGQGTLVTVSS
VL: DIQMTQFPSSVSASVGDRVTITCRASQGISRWLAWYQQKQGKAPKLLIYMVSSLQSGVPSRFSGSGSGTDFTLTISSLQPEDFATYYCQQSHNFPITFGQGTRLDIKR
notes: also called TREM1 antibody 66B8
Human TREM1 GM Fold [1]: 1630 fold
Soluble TREM1 7.5 ng/mL (FACS Geomean) [2]: 23800
Ab IC50-Human PBMC (Trial 1), TNFα release after PGLYRP1/PGN [3]: 31.6 pM
Cyno TREM1 GM Fold (cyno TREM-1 on cells): 1520 fold

B3: 50A12 (antibody, V domains shown)
VH: EVQLVESGGGLVQPGGSLRLSCAASGFTFSSYWMSWVRQAPGKGLEWVANIKQDGSEEYYVDSVKGRFTISRDNAKNSLFLQMNSLRAEDTAVYYCARDYGDSFDYWGQGTLVTVSS
VL: DIQMTQSPSSVSASVGDRVTITCRASQGIRKWLAWYQQKPGRAPKLLIYAASRLQSGVPSRFSGSGSGTDFTLTISSLRPEDFATYYCLQAHGFPWTFGQGTKVEIKR
notes: also called TREM1 antibody 50A12
Human TREM1 GM Fold [1]: 2420 fold
Soluble TREM1 7.5 ng/mL (FACS Geomean) [2]: 14600
Ab IC50-Human PBMC (Trial 1), TNFα release after PGLYRP1/PGN [3]: 3.3 pM
Ab IC50-Human PBMC (Trial 2), TNFα release after PGLYRP1/PGN [3]: 3.6 pM
Cyno TREM1 GM Fold (cyno TREM-1 on cells): 2780 fold

B4: 57C10 (antibody, V domains shown)
VH: QVQLVQSGAEVKKPGASVKVSCKASGYTFTRYDINWVRQATGQGLEWMGWLNPNSGNTGQTQKFRGRVTMTRNTSINTAYMELSSLRSEDTAVYYCARGGYTSAWRWYFDLWGRGTLVTVSS
VL: DIQMTQSPSSLSASVGDRVTITCQASQDINNHLNWYQQKPGKAPKLLIYDVSNLETGVPSSFSGSGCGTDFTFTISSLQPEDIATYFCQQYDKLPLTFGGGTKVEIEG
notes: also called TREM1 antibody 57C10
Human TREM1 GM Fold [1]: 1670 fold
Soluble TREM1 7.5 ng/mL (FACS Geomean) [2]: 28500
Ab IC50-Human PBMC (Trial 1), TNFα release after PGLYRP1/PGN [3]: 8.8 pM
Ab IC50-Human PBMC (Trial 2), TNFα release after PGLYRP1/PGN [3]: 7.2 pM
Cyno TREM1 GM Fold (cyno TREM-1 on cells): 2430 fold

B5: 30H2 (antibody, V domains shown)
VH: EVQVLESGGGLVQPGESLRLSCTASGFTFNAYAMSWVRQAPGKGLEWVSTISGSGSTTYYADSVKGRFTISRDNSKNTLDLQMNSLRAADTAVYYCAKVAGSNFFFDHWGQGTLVTVSS
VL: EIVMTQSPATLSVSPGERATLSCRASQSINSNLAWYQQKPGQAPRLLIYGAYTRATGIPDRFSGSGSGTEFTLTISSLQSEDFAVYYCQEFIMWPPWTFGLGTQVEIKR
notes: also called 30H2 (19330)
Human TREM1 GM Fold [1]: 108 fold
Soluble TREM1 7.5 ng/mL (FACS Geomean) [2]: 91700
Ab IC50-Human PBMC (Trial 1), TNFα release after PGLYRP1/PGN [3]: 6.9 pM
Cyno TREM1 GM Fold (cyno TREM-1 on cells): 76.9 fold

B6: 61B12 (antibody, V domains shown)
VH: QVQLVQSGAEVTKPGASVKVSCKASGYTFTRYDINWVRQATGQGLEWMGWMNPNSGNSGSVQKFRGRVTMTRNTSITTVYMELSSLRSDDTAVYYCARGGISSSWHWAFDIWGQGTMVTVSS
VL: B4 VL with D50G, V51A, S52Y, N53T, S61R, C67S, F87Y, E107K, G108R
notes: also called TREM1 antibody 61B12
Human TREM1 GM Fold [1]: 1850 fold
Soluble TREM1 7.5 ng/mL (FACS Geomean) [2]: 26900
Ab IC50-Human PBMC (Trial 1), TNFα release after PGLYRP1/PGN [3]: 8 pM
Cyno TREM1 GM Fold (cyno TREM-1 on cells): 2090 fold

Residue numbers refer to the chain shown, from its start.
